We go through 6 compounds from paper PMC5382891 (Scientific Reports, 2017).

Sequences of proteins named here, by UniProt entry; tags and fusion partners are left off.
UniProt P41146, whole entry: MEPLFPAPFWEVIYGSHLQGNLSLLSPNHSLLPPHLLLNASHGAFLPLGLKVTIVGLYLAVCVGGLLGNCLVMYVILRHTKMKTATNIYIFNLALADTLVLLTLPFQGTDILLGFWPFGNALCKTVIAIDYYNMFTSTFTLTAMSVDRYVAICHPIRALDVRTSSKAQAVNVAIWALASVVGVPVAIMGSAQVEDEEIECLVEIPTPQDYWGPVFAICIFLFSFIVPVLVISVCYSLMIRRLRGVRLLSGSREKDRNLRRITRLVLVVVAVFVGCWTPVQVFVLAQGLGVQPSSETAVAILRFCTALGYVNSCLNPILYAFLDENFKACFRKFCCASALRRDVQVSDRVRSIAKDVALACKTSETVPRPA

In the assay the target is human recombinant NOP receptor (Homo sapiens, UniProt P41146). The note with it: for Emax ± SEM: Table 3, mean ± SEM of at least 4 separate experiments in duplicate.

Turning to `O=C(CCCCCCN1CN(c2ccccc2)C2(CCN(C3Cc4cccc5cccc3c45)CC2)C1=O)NCCCCCCCNC(=O)CCCCCCN1CN(c2ccccc2)C2(CCN(C3Cc4cccc5cccc3c45)CC2)C1=O` (centres unmarked), the “Emax ± SEM” value was 150 ± 35 percent fluorescence intensity over the basal values. Moreover, under “calcium assay”, the “less potent than Ro 65-6570” value is listed as 23 fold.
As for `O=C(CCCCCCN1CN(c2ccccc2)C2(CCN(C3Cc4cccc5cccc3c45)CC2)C1=O)NCCNC(=O)CCCCCCN1CN(c2ccccc2)C2(CCN(C3Cc4cccc5cccc3c45)CC2)C1=O` (centres unmarked), the “pEC50(CL95%)” value was 7.57 (7.23–7.91) and the “Emax ± SEM” value is on record as 131 ± 12 percent fluorescence intensity over the basal values.
As for `O=C(CCCCCCN1CN(c2ccccc2)C2(CCN(C3Cc4cccc5cccc3c45)CC2)C1=O)NCCCCCCNC(=O)CCCCCCN1CN(c2ccccc2)C2(CCN(C3Cc4cccc5cccc3c45)CC2)C1=O` (centres unmarked), the “Emax ± SEM” value was 132 ± 14 percent fluorescence intensity over the basal values.
Still for that read-out and setting: the value for `O=C(CCCCCCN1CN(c2ccccc2)C2(CCN(C3Cc4cccc5cccc3c45)CC2)C1=O)NCCCCCCCCNC(=O)CCCCCCN1CN(c2ccccc2)C2(CCN(C3Cc4cccc5cccc3c45)CC2)C1=O` (centres unmarked) was 131 ± 21 percent fluorescence intensity over the basal values; that for `O=C(CCCCCCN1CN(c2ccccc2)C2(CCN(C3Cc4cccc5cccc3c45)CC2)C1=O)NCCCCNC(=O)CCCCCCN1CN(c2ccccc2)C2(CCN(C3Cc4cccc5cccc3c45)CC2)C1=O` (centres unmarked) was 135 ± 20 percent fluorescence intensity over the basal values; that for `O=C(CCCCCCN1CN(c2ccccc2)C2(CCN(C3Cc4cccc5cccc3c45)CC2)C1=O)NCCCNC(=O)CCCCCCN1CN(c2ccccc2)C2(CCN(C3Cc4cccc5cccc3c45)CC2)C1=O` (centres unmarked) was 125 ± 6 percent fluorescence intensity over the basal values.
